Experimental data reported in ChEMBL document CHEMBL5712904, “Ovarian Cancer Relies on Glucose Transporter 1 to Fuel Glycolysis and Growth: Anti-Tumor Activity of BAY-876” (Cancers (Basel), 2018).
The source made the active and inactive calls.

Tests used:
[1] = molecular target: T1, Solute carrier family 2, facilitated glucose transporter member 1 (Homo sapiens) (UniProt P11166); settings: HEY, dose 75.0 nM, time 24.0 hrs
T1 sequence (whole entry): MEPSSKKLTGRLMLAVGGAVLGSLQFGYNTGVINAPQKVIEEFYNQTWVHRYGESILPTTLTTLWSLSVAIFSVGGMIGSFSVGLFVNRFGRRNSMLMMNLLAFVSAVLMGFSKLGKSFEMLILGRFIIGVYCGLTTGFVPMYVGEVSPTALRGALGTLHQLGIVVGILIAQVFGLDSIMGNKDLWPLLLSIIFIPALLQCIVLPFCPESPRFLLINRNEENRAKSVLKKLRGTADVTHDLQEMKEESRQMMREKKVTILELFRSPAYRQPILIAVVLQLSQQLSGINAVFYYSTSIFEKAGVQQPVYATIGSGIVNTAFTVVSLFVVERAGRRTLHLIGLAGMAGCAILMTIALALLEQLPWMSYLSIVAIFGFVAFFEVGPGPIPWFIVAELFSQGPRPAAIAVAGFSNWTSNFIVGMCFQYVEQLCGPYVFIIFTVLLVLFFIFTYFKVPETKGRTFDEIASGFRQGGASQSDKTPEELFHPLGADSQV

[2] = molecular target: T1, Solute carrier family 2, facilitated glucose transporter member 1 (Homo sapiens); settings: OVCAR-3, dose 75.0 nM, time 24.0 hrs
[3] = molecular target: T1, Solute carrier family 2, facilitated glucose transporter member 1 (Homo sapiens); settings: SK-OV-3, dose 75.0 nM, time 24.0 hrs
[4] = molecular target: T1, Solute carrier family 2, facilitated glucose transporter member 1 (Homo sapiens); settings: A2780, dose 75.0 nM, time 24.0 hrs
[5] = molecular target: T1, Solute carrier family 2, facilitated glucose transporter member 1 (Homo sapiens); settings: A2780, dose 75.0 nM, time 24.0 hrs; remark: listed apart in the source
[6] = molecular target: T1, Solute carrier family 2, facilitated glucose transporter member 1 (Homo sapiens); settings: OVCAR-3, dose 75.0 nM, time 24.0 hrs; remark: listed apart in the source
[7] = molecular target: T1, Solute carrier family 2, facilitated glucose transporter member 1 (Homo sapiens); settings: SK-OV-3, dose 75.0 nM, time 24.0 hrs; remark: listed apart in the source
[8] = molecular target: T1, Solute carrier family 2, facilitated glucose transporter member 1 (Homo sapiens); settings: HEY, dose 75.0 nM, time 24.0 hrs; remark: listed apart in the source
[9] = molecular target: T1, Solute carrier family 2, facilitated glucose transporter member 1 (Homo sapiens); settings: A2780, dose 75.0 nM, time 24.0 hrs; remark: listed apart in the source
[10] = molecular target: T1, Solute carrier family 2, facilitated glucose transporter member 1 (Homo sapiens); settings: SK-OV-3, dose 75.0 nM, time 24.0 hrs; remark: listed apart in the source
[11] = molecular target: T1, Solute carrier family 2, facilitated glucose transporter member 1 (Homo sapiens); settings: OVCAR-3, dose 75.0 nM, time 24.0 hrs; remark: listed apart in the source
[12] = molecular target: T1, Solute carrier family 2, facilitated glucose transporter member 1 (Homo sapiens); settings: OVCAR-3, dose 75.0 nM, time 24.0 hrs; remark: listed apart in the source
[13] = molecular target: T1, Solute carrier family 2, facilitated glucose transporter member 1 (Homo sapiens); settings: SK-OV-3, dose 75.0 nM, time 24.0 hrs; remark: listed apart in the source
[14] = molecular target: T1, Solute carrier family 2, facilitated glucose transporter member 1 (Homo sapiens); settings: A2780, dose 75.0 nM, time 24.0 hrs; remark: listed apart in the source
[15] = molecular target: T1, Solute carrier family 2, facilitated glucose transporter member 1 (Homo sapiens); settings: A2780, dose 75.0 nM, time 24.0 hrs; remark: listed apart in the source
[16] = molecular target: T1, Solute carrier family 2, facilitated glucose transporter member 1 (Homo sapiens); settings: SK-OV-3, dose 75.0 nM, time 24.0 hrs; remark: listed apart in the source
[17] = molecular target: T1, Solute carrier family 2, facilitated glucose transporter member 1 (Homo sapiens); settings: SK-OV-3, dose 75.0 nM, time 24.0 hrs; remark: listed apart in the source
[18] = molecular target: T1, Solute carrier family 2, facilitated glucose transporter member 1 (Homo sapiens); settings: SK-OV-3, dose 75.0 nM, time 24.0 hrs; remark: listed apart in the source
[19] = molecular target: T1, Solute carrier family 2, facilitated glucose transporter member 1 (Homo sapiens); settings: SK-OV-3, dose 75.0 nM, time 24.0 hrs; remark: listed apart in the source
[20] = molecular target: T1, Solute carrier family 2, facilitated glucose transporter member 1 (Homo sapiens); settings: SK-OV-3, dose 75.0 nM, time 24.0 hrs; remark: listed apart in the source
[21] = molecular target: T1, Solute carrier family 2, facilitated glucose transporter member 1 (Homo sapiens); settings: SK-OV-3, dose 75.0 nM, time 24.0 hrs; remark: listed apart in the source
[22] = molecular target: T1, Solute carrier family 2, facilitated glucose transporter member 1 (Homo sapiens); settings: OVCAR-3, dose 75.0 nM, time 24.0 hrs; remark: listed apart in the source
[23] = molecular target: T1, Solute carrier family 2, facilitated glucose transporter member 1 (Homo sapiens); settings: OVCAR-3, dose 75.0 nM, time 24.0 hrs; remark: listed apart in the source
[24] = molecular target: T1, Solute carrier family 2, facilitated glucose transporter member 1 (Homo sapiens); settings: OVCAR-3, dose 75.0 nM, time 24.0 hrs; remark: listed apart in the source
[25] = molecular target: T1, Solute carrier family 2, facilitated glucose transporter member 1 (Homo sapiens); settings: OVCAR-3, dose 75.0 nM, time 24.0 hrs; remark: listed apart in the source
[26] = molecular target: T1, Solute carrier family 2, facilitated glucose transporter member 1 (Homo sapiens); settings: OVCAR-3, dose 75.0 nM, time 24.0 hrs; remark: listed apart in the source
[27] = molecular target: T1, Solute carrier family 2, facilitated glucose transporter member 1 (Homo sapiens); settings: A2780, dose 75.0 nM, time 24.0 hrs; remark: listed apart in the source
[28] = molecular target: T1, Solute carrier family 2, facilitated glucose transporter member 1 (Homo sapiens); settings: A2780, dose 75.0 nM, time 24.0 hrs; remark: listed apart in the source
[29] = molecular target: T1, Solute carrier family 2, facilitated glucose transporter member 1 (Homo sapiens); settings: A2780, dose 75.0 nM, time 24.0 hrs; remark: listed apart in the source
[30] = molecular target: T1, Solute carrier family 2, facilitated glucose transporter member 1 (Homo sapiens); settings: A2780, dose 75.0 nM, time 24.0 hrs; remark: listed apart in the source

Measured: inhibition

Cc1c(NC(=O)c2cc(C(N)=O)nc3cc(F)ccc23)c(C(F)(F)F)nn1Cc1ccc(C#N)cc1 [BAY-876]
active: [1] Dose-Dependent Effect | [2] Dose-Dependent Effect | [3] Dose-Dependent Effect | [6] | [7] | [8] | [10] | [11] | [12] | [13] | [16] | [17] | [18] | [19] | [20] | [21] | [22] | [23] | [24] | [25] | [26]
inactive: [4] | [5] | [9] | [14] | [15] | [27] | [28] | [29] | [30]
